The values below come from patent US9029409B2, “Isoxazolines as therapeutic agents” (AbbVie Inc., priority 2011, dated 2015).

The target in this experiment is recombinant human MMP13 catalytic domain (CD) (Homo sapiens, UniProt P45452). Nature of the experiment: MMP-13 catalytic domain FRET enzyme assay. The following applies: read-out: MMP13 (CD) IC50, recombinant human MMP-13 catalytic domain. The procedure:
A recombinant human MMP13 catalytic domain (CD) construct encompassing residues 20-274 (SWISS-PROT P45452) was generated by synthetic gene methods and bacterial expression. MMP-13 activity assays were performed using the recombinant human MMP-13 CD at a 0.4 nM concentration and the fluorogenic substrate (QXL-520)-K-P-L-A˜Nva-Dap(5-FAM)-A-R-NH2 (Anaspec cat #60554-01, San Jose, Calif.) at a 0.25 μM concentration in assay buffer containing […], pH 7.5, 10 mM CaCl2, 150 mM NaCl, 0.05% Brij 35. The assay is based on the cleavage of this substrate by MMP-13, resulting in decrease of FRET between the donor-acceptor pair and subsequent fluorescence enhancement. The assays were carried out in 384-well plates (Greiner cat #781076, Germany) for 60 min at RT. After the incubation period, the reaction was quenched by the addition of 5 μL of 500 mM EDTA (100 mM final concentration) (Rankem, Cat #E0120, India) mixed well and the rate of substrate hydrolysis was determined by monitoring change in fluorescence at excitation and emission wavelengths of 485 nm and 535 nm respectively. Fluorescence was measured on a Victor V5 plate reader (Perkin Elmer, Turku, Finland). […]
MMP13 Catalytic Domain (CD) Potency of the Described Examples Determined Using Time Resolved Fluorescence Resonance Energy Transfer (FRET) Enzyme Assays: […]

`CCCS(=O)(=O)N1CCC(C2CC(c3cc(C(=O)NCc4ccc(F)c(OC)c4)nc(C)n3)=NO2)CC1` (stereo not shown): the IC50 is < 10 nM.

One may read the IC50 as the concentration that inhibits the measured activity by half.
